# Laboratory results taken from ChEMBL document CHEMBL1146851, “Discovery of 2-pyrimidyl-5-amidothiophenes as potent inhibitors for AKT: synthesis and SAR studies” (Bioorg Med Chem Lett, 2006).
# By UniProt entry, the sequences of proteins in these tests, tags left out. Where a name states a change or a piece, a line headed by the entry shows the natural chain unless it says otherwise.
# UniProt Q9Y243: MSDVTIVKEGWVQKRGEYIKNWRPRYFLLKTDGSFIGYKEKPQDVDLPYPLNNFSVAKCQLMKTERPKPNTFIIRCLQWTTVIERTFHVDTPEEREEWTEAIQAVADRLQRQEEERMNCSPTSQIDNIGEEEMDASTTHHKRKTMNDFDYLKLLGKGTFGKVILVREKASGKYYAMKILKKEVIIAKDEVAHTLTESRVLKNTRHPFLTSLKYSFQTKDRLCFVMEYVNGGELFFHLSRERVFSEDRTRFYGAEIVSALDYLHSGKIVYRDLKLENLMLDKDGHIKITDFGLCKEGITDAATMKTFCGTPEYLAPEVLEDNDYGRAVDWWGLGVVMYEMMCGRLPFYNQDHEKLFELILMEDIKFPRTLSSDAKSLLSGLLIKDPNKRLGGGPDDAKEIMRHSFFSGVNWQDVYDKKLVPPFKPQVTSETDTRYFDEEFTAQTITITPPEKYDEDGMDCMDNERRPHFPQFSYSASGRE
# Molecular target: RAC-gamma serine/threonine-protein kinase (Homo sapiens, UniProt Q9Y243)
# Assay: Inhibition of AKT3 in presence of 0.2 uM ATP
# How it was run: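 Biochemical kinase IC50s, each run with ATP at or below its Km.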
compound,measurement,value
CNc1nccc(-c2ccc(C(=O)N[C@H](CN)Cc3ccc(Cl)cc3Cl)s2)n1,pIC50,8.59

# pIC50: −log10 of the molar value.
